{"source": "patent US10450549B2", "about": "“Aryloxyphenoxypropionate tolerance in turfrgass species and use of AAD1 as a selectable marker” (Dow AgroSciences, LLC, priority 2004, dated 2019)", "system": "CC(Oc1ccc(Oc2cnc3cc(Cl)ccc3n2)cc1)C(=O)O", "test": "purified protein, by the assay type", "conditions": "other: purified AAD1 (v1), 25 mM MOPS pH 6.8, 25° C.", "data": [{"substance": "AAD1 (v1) (Sphingobium herbicidovorans NBRC 16415)", "values": [{"measurement": "Km", "value": "125 ± 20", "unit": "µM"}]}]}
